Assay results reported in patent US20210085796A1, “ANTICANCER DRUGS AND METHODS OF MAKING AND USING SAME” (YALE UNIVERSITY, priority 2017, published 2021).

Columns and labels:
[1] = system: MDA-MB-231 breast cancer cells; experiment: pH-dependent cell growth inhibition (CellTiter-Glo); type: cell-based, Human; details: 6 hours treatment, then 72 hours growth
Description: FIG. 6 depicts pH-dependent cell growth inhibition of MDA-MB-231 breast cancer cells in culture, treated transiently with Drug (in this case doxorubicin HCl) or various prodrugs of the invention. Cells treated for 6 hours at pH 7.4 (normal physiological pH, X traces) or pH 6.2 (acidic solid tumor pH, Y traces) were subsequently allowed to grow in normal growth medium for 72 hours, then cell viability was evaluated using the CellTiter-Glo assay kit (Promega). Normalized percent cell growth inhibition is plotted on the left side of each panel and IC50 values reported at each pH from non-linear regression analysis.
In order to evaluate pH-dependent activity, treatments are performed at atypical cell culture conditions. […] Several cell lines have been evaluated using this method and for each, cell seeding density and treatment duration is independently experimentally determined. Each experiment is normalized to sham and complete activity controls for each pH condition.
Human MDA-MB-231 breast cancer cells seeded at low density on tissue culture treated 384-well plates, allowed to adhere and grow in serum-supplemented growth medium for 24 hours, then treated under pH-controlled conditions for 6 hours, and finally washed and grown in fresh growth media for 72 hours were assessed for cell survival using the CellTiter-Glo assay system (Promega) (FIG. 6).

[2] = intravenous injection; cited from earlier work

Question: Which “fold lower IC50 value in cells treated at pH 7.4 than at pH 6.2” value [1] does the source give for COc1cccc2c1C(=O)c1c(O)c3c(c(O)c1C2=O)C[C@@](O)(C(=O)CO)C[C@@H]3O[C@H]1C[C@H](N)[C@H](O)[C@H](C)O1 [Doxorubicin, reference compound] here?
Answer: > 15 fold

Question: What about the “t1/2 of distribution from the blood into tissues” value [2] of the same molecule?
Answer: ~5 min
